Sequences of proteins named here, by UniProt entry; tags and fusion partners are left off. Residues count along the entry.
UniProt Q920F5, 39-492 limits assumed: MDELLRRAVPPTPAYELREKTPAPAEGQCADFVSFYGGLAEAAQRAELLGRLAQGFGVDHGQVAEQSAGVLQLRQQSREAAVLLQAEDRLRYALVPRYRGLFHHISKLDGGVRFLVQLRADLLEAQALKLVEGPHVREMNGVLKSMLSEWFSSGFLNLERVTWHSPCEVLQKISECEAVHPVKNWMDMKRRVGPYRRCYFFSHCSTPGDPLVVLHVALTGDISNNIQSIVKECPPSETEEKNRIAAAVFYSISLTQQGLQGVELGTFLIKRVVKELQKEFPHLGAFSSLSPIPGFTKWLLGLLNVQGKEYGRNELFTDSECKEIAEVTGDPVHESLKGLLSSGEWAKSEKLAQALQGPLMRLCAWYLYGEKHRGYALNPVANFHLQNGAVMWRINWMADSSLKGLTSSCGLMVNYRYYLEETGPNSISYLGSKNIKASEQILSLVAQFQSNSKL

According to patent publication US7279477B2 (Chugai Seiyaku Kabushiki Kaisha, priority 2001, dated 2007):

Biological target: malonyl-CoA decarboxylase prepared from rat heart (Rattus norvegicus, UniProt Q920F5)
Experiment: In vitro MCD inhibitory assay (spectrophotometric, 96 well)
Type: biochemical
Settings: read-out: IC50 of the MCD inhibitors, concentration causing 50% inhibition of MCD activity

CCCCNC(=O)c1c(-c2ccccc2)nc(-c2ccc(C(O)(C(F)(F)F)C(F)(F)F)cc2)n1Cc1ccccn1
IC50: 38 nM
